# Assay: Immunogenicity: specific IgG by ELISA in immunized mice
# Settings: immunized BALB/C mice, OD 450 nm
# Method: Immunoblotting was performed with anti-PKCα, anti-ATP5A1, anti-SIRT3 or anti-actin. […] (B) The schematic diagram of a xenograft model treated with rVector (upper). HCT116-expressing ATP5A1 WT and mutant cells were subcutaneously injected into the flank of nude mice. […] Each group included 10 mice. […] (C) Humoral immune responses in BALB/C mice. The mice were immunized via each route (intravenous injection or intraperitoneal injection) every third day, and subjected to blood collection on day 40. […] The values are expressed as mean±standard deviation for absorbance (OD) at 450 nm. Each group included five mice. (D) Cytokine response for rATRAM-GRA8-M/AS in tumor-bearing mice. As described in the method section, HCT116 cells were subcutaneously injected into the flank of a BALB/c mouse. A serum cytokine level was measured on day 30 after administration. Each group included 10 mice.
# Since immunogenicity is closely related with safety and efficacy, it is one of the critical factors for development of therapeutic proteins. Therefore, by monitoring the production of antibodies against rATRAM-GRA8-M/AS in immunized mice, the immunogenicity of rATRAM-GRA8-M/AS was investigated. After three consecutive injections of rATRAM-GRA8-M/AS, a level of IgG antibody was analyzed using enzyme-linked immunosorbent assay (ELISA).
substance,measurement,value
ovalbumin [reference compound],level of specific IgG antibody,significant increase
